Our source for the IC50 values is patent US20130280279A1, “PHARMACEUTICAL COMPOSITION OF A COMPLEX OF AN ANTI-DIG ANTIBODY AND DIGOXIGENIN THAT IS CONJUGATED TO A PEPTIDE” (HOFFMANN-LA ROCHE INC., priority 2011, published 2013).

pIC50: −log10 of the molar value.

The test system of the assay is H322M cells. Description: CytoTox-Glo cytotoxicity assay. To be noted: 48 hours, read-out: IC50 unmodified peptide. It counts as cell-based, human. The protocol: To evaluate whether additions or alterations of the peptide Melittin, FALLv1 and FALLv2 by digoxygenin alters its biological activity, we performed in vitro assays. As these peptides are cytotoxic, their biological activity can easily be analyzed by monitoring the number of dead cells. To measure this number, the CytoTox-Glo assay (Promega Madison, WI) was used. Table 2 lists results of these CytoTox-Glo-assays that were performed to assess the biological activity of the Melittin, Fallv1 and Fallv2 peptides and their DIG-modified variants. For these assays, H322M cells were seeded at a density of 15.000 cells per well in 96 well plates. The cells were incubated for 24 hours at 37° C., 5% CO2 and 85% humidity in RPMI with 10% FCS, Na+ Pyrovate, L-Glutamine and NEAA mix. The peptide and it's DIG-modified variant were then added to the cells in the concentrations indicated. The cells were incubated for further 48 hours. After this period, the cells were treated with the CytoTox-Glo-assay reagent according to the manufacturers instructions. […] The luminescence of this assay therefore represents dead cells. The 96 well plates were then analyzed in a InfiniteF200 luminescence reader (Tecan Austria, Groding). […] To address this topic, we analyzed the in vitro activity of peptide-antibody complexes for the cytotoxic peptides FALLv1 and Fam5b. […]

One may read the pIC50 as the negative decadic logarithm of the IC50, by convention in mol/L. As for `CC[C@H](C)[C@H](NC(=O)CN)C(=O)NCC(=O)N[C@@H](C)C(=O)N[C@H](C(=O)N[C@@H](CC(C)C)C(=O)N[C@@H](CCCCN)C(=O)N[C@H](C(=O)N[C@@H](CC(C)C)C(=O)N[C@H](C(=O)N[C@H](C(=O)NCC(=O)N[C@@H](CC(C)C)C(=O)N1CCC[C@H]1C(=O)N[C@@H](C)C(=O)N[C@@H](CC(C)C)C(=O)N[C@H](C(=O)N[C@@H](CO)C(=O)N[C@@H](Cc1c[nH]c2ccccc12)C(=O)N[C@H](C(=O)N[C@@H](CCCCN)C(=O)N[C@@H](CCCNC(=N)N)C(=O)N[C@@H](CCCCN)C(=O)N[C@@H](CCCNC(=N)N)C(=O)N[C@@H](CCC(N)=O)C(=O)N[C@@H](CCC(N)=O)C(N)=O)[C@@H](C)CC)[C@@H](C)CC)[C@@H](C)O)[C@@H](C)O)C(C)C)C(C)C` [Melittin, reference compound], the pIC50 is 5.48.
